As usually defined, the IC50 is the concentration needed to halve the response being measured.

A short description of the test: The concentration of compound required to prevent 50 percent of cells from adhering to MAdCAM-1.

The molecule `CC(=O)N[C@@H](CC(C)C)C(=O)N[C@@H](CC(=O)O)C(=O)N[C@H](C(=O)N[C@@H](CO)C(=O)N[C@@H](CC(C)C)C(N)=O)[C@@H](C)O` [3-{1-[1-(1-carbamoyl-3-methylbutylcarbamoyl)-2-hydroxyethylcarbamoyl]-2-hydroxypropylcarbamoyl}-3-(3-methyl-1-methylcarboxamidobutylcarboxamido)propanoic acid] gave a 50% inhibitory concentration (IC50) of 298 µM.

Values taken from BindingDB's records for doi:10.1016/S0960-894X(97)00090-5 (1997).
